According to patent US20140358576A1, “SYSTEM AND METHOD FOR SURVEILLANCE AND EVALUATION OF SAFETY RISKS ASSOCIATED WITH MEDICAL INTERVENTIONS” (Adverse Events, Inc., priority 2013, published 2014):

Columns and labels:
[1] = RxScore calculation, Example 2 (FAERS components with event reporter Importance Weighting, no FDA warning/DEA schedule); details: for ROR: Example 2 disproportionality measure component score, up to 20 points
[2] = RxScore calculation, Example 1 (FAERS components plus FDA and DEA components)

| Substance | ROR [1] | RxScore ([1]; Example 2, maximum of 100 total points, Importance Weighting applied) | Adverse Event Seriousness ([1]; Example 2 component score, up to 27 points) | Outcome ([1]; Example 2 component score, up to 35 points, comorbidity adjusted) | Report Priority ([1]; Example 2 report type component score, up to 6 points) | RxScore ([2]; Example 1, maximum of 100 total points, FAERS primary suspect case reports) | Condition Seriousness ([2]; Example 1 component score, up to 8.68 points) | Adverse Event Seriousness ([2]; Example 1 component score, up to 20.03 points) | Outcome ([2]; Example 1 component score, up to 25.65 points, comorbidity adjusted) | ROR ([2]; Example 1 disproportionality measure component score, up to 14.98 points) | Literature ([2]; combined scores from FDA MedGuides, FDA boxed warnings, and DEA schedules) |
| --- | --- | --- | --- | --- | --- | --- | --- | --- | --- | --- | --- |
| sodium iodide i-131 | 14.71 |  |  |  |  |  |  |  |  |  |  |
| icodextrin | 5.55 | 73.08 | 15.16 | 22.03 | 5.51 |  |  |  |  |  |  |
| coagulation factor viia, recombinant |  |  |  |  |  | 81.61 | 3.51 | 11.20 | 18.17 | 2.54 | 12.5 |
